Target: T1, Tyrosine-protein phosphatase non-receptor type 1 [1-298] (Homo sapiens, UniProt P18031)
T1 construct: 1-298
T1 sequence (P18031 whole entry): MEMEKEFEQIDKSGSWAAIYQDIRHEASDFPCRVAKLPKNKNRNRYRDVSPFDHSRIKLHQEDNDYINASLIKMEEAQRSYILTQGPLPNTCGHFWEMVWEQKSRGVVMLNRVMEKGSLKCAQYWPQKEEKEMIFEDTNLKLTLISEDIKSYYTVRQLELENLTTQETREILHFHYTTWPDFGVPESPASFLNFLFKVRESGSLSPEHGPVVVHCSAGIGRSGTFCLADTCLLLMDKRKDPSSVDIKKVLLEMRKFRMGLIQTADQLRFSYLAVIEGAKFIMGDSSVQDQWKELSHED
Assay: Enzymatic Assay
Conditions: pH 7.4; 22 °C
Experimental: The enzymatic assay was carried out at room temperature in 96-well plates. […] All the assays were carried out in duplicate or triplicate and the average results are presented. Ki is derived from IC50 based on competitive inhibition Ki = IC50 x Km/ (Km + [substrate]).

- Ki: 230 µM
SMILES: O=C(O)COc1c(C(=O)O)sc2ncccc12 [3-(carboxymethoxy)thieno[2,3-b]pyridine-2-carboxylic acid]

Reference: BindingDB's records for doi:10.1016/j.bmc.2005.11.005 (Wyeth Research, 2006)
